## Properties, as collected for the OPERA models

Values as listed in the OPERA 2.9 repository of K. Mansouri.

Melting points are in °C. The boiling point refers to atmospheric pressure (760 mmHg), by the definition of the set. The octanol-water partition coefficient is given as log10; larger values mean a more lipophilic compound. Solubility in water is on a log10 molar scale (set defined at 25 °C). Vapor pressure is log10 of mmHg; the set covers 15 to 30 °C, mostly 20 to 25 °C. The unbound fraction in human plasma runs from 0 (all bound) to 1 (all free). Intrinsic clearance (human, µL/min per 10^6 hepatocytes): higher is faster turnover, and 0 stands for none detected. Cells with "–" have no entry in this list.

The entry for C[C@]12CC=C3C4=C(CC[C@H]3[C@@H]1CCC2=O)CC1(CC4)OCCO1 [Estradiene dione-3-keta] lists log Kow 3.4 and water solubility -4.418 (log10 mol/L). For COC(=O)c1ccccc1O [Methyl salicylate] the data give fu 0.107 and intrinsic clearance 817 µL/min/10^6 cells. Listed for CC1=C(C(=O)O)N2C(=O)C(NC(=O)C(N)c3ccc(O)cc3)C2SC1.O (centres undefined) [Cefadroxil monohydrate]: log Kow -0.4 and water solubility -2.98 (log10 mol/L). The entry for C[C@H]1CN(C[C@H](Cc2ccccc2)C(=O)NCC(=O)O)CC[C@@]1(C)c1cccc(O)c1 [Alvimopan] lists water solubility -4.707 (log10 mol/L) and fu 0.15. For COCCCNS(=O)(=O)c1ccc([O-])c(/N=N/c2c([O-])ccc3ccccc23)c1.COCCCNS(=O)(=O)c1ccc([O-])c(/N=N/c2c([O-])ccc3ccccc23)c1.[Co+3].[Na+] the data give MP 252 °C and water solubility -3.851 (log10 mol/L). CC(=O)OCC1CCC=C(CCC=C(C)C)C1 (centres undefined) [3(or 4)-(4-Methylpenten-3-yl)cyclohex-3-ene-1-methyl acetate] is reported with log Kow 5.65 and water solubility -4.976 (log10 mol/L) and vapor pressure -3.348 (log10 mmHg). CCCCCCCC/C=C\CCCCCCCC(=O)OCC(C)(C)COC(=O)CCCCCCC/C=C\CCCCCCCC [2,2-Dimethyl-1,3-propanediyl dioleate] is reported with MP -21 °C and water solubility -7.102 (log10 mol/L). For CC(=O)Nc1ccc(-c2ccc(NC(C)=O)cc2)cc1 [N,N'-Diacetylbenzidine] the data give MP 328.4 °C and log Kow 1.97.

C=CCCCCCCCC(=O)N(C)C [9-Decenamide, N,N-dimethyl-] has MP -11.2 °C and boiling point 293 °C and log Kow 3.17 and water solubility -2.198 (log10 mol/L) and vapor pressure -2.745 (log10 mmHg). Cc1ccsc1C(=CCCN1CCC[C@@H](C(=O)O)C1)c1sccc1C [Tiagabine] is reported with log Kow 2.6 and water solubility -4.25 (log10 mol/L). CCN(CC)c1ccc2cc(-c3nc4cc(Cl)ccc4o3)c(=O)oc2c1 is reported with MP 203.2 °C and log Kow 4.9 and water solubility -7.488 (log10 mol/L) and vapor pressure -9.462 (log10 mmHg). CCC(=O)C(C)=O [2,3-Pentanedione] has water solubility -0.176 (log10 mol/L) and vapor pressure 1.302 (log10 mmHg). CC(=O)N[C@H]1[C@H]([C@H](O)[C@H](O)CO)OC(C(=O)O)=C[C@@H]1NC(=N)N [Zanamivir] has log Kow -3 and water solubility -1.462 (log10 mol/L). The entry for Cc1cnn(C)c1 [1,4-Dimethylpyrazole] lists MP -45.8 °C and vapor pressure 0.4 (log10 mmHg). COC(=O)c1nc(Cl)c(Cl)nc1N [Methyl 3-amino-5,6-dichloropyrazine-2-carboxylate] is reported with water solubility -4.54 (log10 mol/L) and vapor pressure -6.444 (log10 mmHg). For C[C@@H]1C[C@H]2[C@@H]3CCC4=CC(=O)C=C[C@]4(C)[C@@]3(F)[C@@H](O)C[C@]2(C)[C@@]1(O)C(=O)COP(=O)([O-])[O-].[Na+].[Na+] [Dexamethasone sodium phosphate] the data give fu 0.0956 and intrinsic clearance 9.63 µL/min/10^6 cells.

For CC(C)(C)C(CCC(=O)O)CC(=O)O (centres undefined) [3-tert-Butyladipic acid] the data give log Kow 1.59 and water solubility -1.617 (log10 mol/L) and vapor pressure -6.437 (log10 mmHg). COC(C)COC(C)CO (centres undefined) [2-(2-Methoxypropoxy)propanol] is reported with MP -81.39 °C and boiling point 196.4 °C and vapor pressure -0.301 (log10 mmHg). Cc1cc(=O)[nH]c(=S)[nH]1 has log Kow -1.703 and intrinsic clearance 0 µL/min/10^6 cells. The entry for Cc1cc(OI)c(C(C)C)cc1-c1cc(C(C)C)c(OI)cc1C [Thymol iodide] lists log Kow 4.8 and water solubility -6.837 (log10 mol/L) and vapor pressure -3.881 (log10 mmHg). C=CC(=O)OCC(O)COC(=O)C(C)(CCC)CCCC (centres undefined) is reported with water solubility -3.325 (log10 mol/L) and vapor pressure -4.078 (log10 mmHg). Listed for CC[C@@]12CCC3=C(CCc4cc(OC)ccc43)[C@H]1CCC2=O [13-Ethyl-3-methoxygona-1,3,5(10),8-tetraen-17-one]: log Kow 4.88 and water solubility -4.773 (log10 mol/L). Nc1ccc(N2CCOCC2=O)cc1 [4-(4-aminophenyl)morpholin-3-one] is reported with MP 166.7 °C and log Kow -0.8 and vapor pressure -8.339 (log10 mmHg). CCCCC1=NC2(CCCC2)C(=O)N1Cc1ccc(-c2ccccc2C#N)cc1 has log Kow 3.7 and water solubility -5.472 (log10 mol/L) and vapor pressure -8.727 (log10 mmHg).

NC1=CC(=Nc2ccc(N)cc2)C(N)=CC1=Nc1ccc(N)cc1 [Bandrowski's base] has water solubility -1.143 (log10 mol/L) and vapor pressure -10.37 (log10 mmHg). CCCCC(=O)OCC(=O)[C@H]1[C@H](C)C[C@H]2[C@@H]3C[C@H](F)C4=CC(=O)C=C[C@]4(C)C3=CC[C@@]21C has MP 125.7 °C and water solubility -6.044 (log10 mol/L).

A selection of 3 entries from above:

SMILES	name	MP (°C)	boiling point (°C)	log Kow	water solubility (log10 mol/L)	vapor pressure (log10 mmHg)	fu	intrinsic clearance (µL/min/10^6 cells)
COC(=O)c1nc(Cl)c(Cl)nc1N	Methyl 3-amino-5,6-dichloropyrazine-2-carboxylate	–	–	–	-4.54	-6.444	–	–
Cc1cc(=O)[nH]c(=S)[nH]1	–	–	–	-1.703	–	–	–	0
CC(=O)OCC1CCC=C(CCC=C(C)C)C1 (centres undefined)	3(or 4)-(4-Methylpenten-3-yl)cyclohex-3-ene-1-methyl acetate	–	–	5.65	-4.976	-3.348	–	–

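These are experimental values that the OPERA curators gathered from public databases to train and test their QSAR models. One number stands for a compound and property, with no spread given. Conditions of the individual experiments are not part of the data. A value may pool stereoisomers or salt forms, and the file does not say which form was measured. Some upstream entries may be estimates or bounds without being marked so.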